Measurements taken from patent US20150238460A1, “Methods and Compositions For Treating Hepatocellular Carcinoma” (priority 2012, published 2015).

Test system: advanced, unresectable HCC (various cancers in whole group)
Experiment: Phase I trial G-202-001, expansion group with modified dosing regimen
Conditions: modified regimen: Day 1 40 mg/m^2, Days 2 and 3 […]^2; 15 patients
Text: Virtually all anti-cancer agents have the potential to cause infusion reactions, which are reactions that may be allergic or non-allergic in nature and not related to the known toxicity profile of the agent. Infusion reactions are usually thought of as hypersensitivity reactions, despite the absence of an allergic component in many cases.
Endpoints evaluated in the expansion group included safety, tumor response rate, progression-free survival, and overall survival. Additional secondary endpoints included exploration of pharmacodynamic markers associated with various cancers. Assessments were routinely performed during therapy and following therapy if toxicity was the reason therapy was discontinued.
The only FDA-approved therapy for patients with unresectable HCC is sorafenib tosylate, otherwise known as Nexavar® and/or by the chemical name: 4-(4-{3-[4-Chloro-3-(trifluoromethyl)phenyl]ureido}phenoxy)N2methylpyridine-2-carboxamide 4-methylbenzenesulfonate.

In the case of “8-O-(12-aminododecanoyl)-debutanoyl-thapsigargin aspartate-glutamate-γ-glutamate-γ-glutamate-γ-glutamate OH [G-202]”, the “occurrence of infusion-related reactions” value is reported as “decreased”.
